Patent US8481547B2, “Substituted benzothiazole and benzoxazole derivatives useful as inhibitors of DPP-1” (Janssen Pharmaceutica NV, priority 2009, dated 2013)
Read-outs that look alike come from different tables or passages of the source.

By UniProt entry, the sequences of proteins in these tests, tags left out. Residues count along the entry.
UniProt P53634, 25-463 limits assumed: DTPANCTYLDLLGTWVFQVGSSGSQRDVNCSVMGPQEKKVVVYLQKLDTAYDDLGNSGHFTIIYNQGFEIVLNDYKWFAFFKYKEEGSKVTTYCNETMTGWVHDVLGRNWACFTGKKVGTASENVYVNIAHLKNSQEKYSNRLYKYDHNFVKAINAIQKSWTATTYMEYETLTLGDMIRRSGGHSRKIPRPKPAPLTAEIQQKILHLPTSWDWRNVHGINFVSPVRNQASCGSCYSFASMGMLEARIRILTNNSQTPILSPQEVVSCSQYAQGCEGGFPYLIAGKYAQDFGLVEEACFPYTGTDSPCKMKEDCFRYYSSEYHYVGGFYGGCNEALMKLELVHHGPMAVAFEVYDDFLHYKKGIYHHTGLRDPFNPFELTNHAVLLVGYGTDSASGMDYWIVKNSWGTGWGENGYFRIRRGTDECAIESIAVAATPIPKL

Biological target: recombinant human DPP-1 (Cathepsin C) (Homo sapiens, UniProt P53634)
Assay: DPP-1 Inhibition Assay (In Vitro)
Details: read-out: DPP-1 Inhibition IC50, fluorogenic substrate GR-AMC 10 uM, 0.15 nM DPP-1, pH 7.0, room temperature, average value where tested multiple times
Method: Test compounds were assessed for DPP-1 (Cathepsin C) inhibitory activity using a fluorogenic substrate, GR-AMC (Glycine-Arginine-amino-4-methylcoumarin, Bachem, 1-1215). The amount of amino-methylcoumarin released is proportional to the DPP-1 activity, and the reaction is monitored kinetically with a Molecular Devices plate reader using black 96-well plates.
All compounds were tested under room temperature conditions. The assay buffer consisted of 50 mM HEPES, pH 7.0, 100 mM NaCl, 2 mM glutathione (GSH), and 0.002% TWEEN 20. GSH and TWEEN 20 were added to the buffer fresh daily. Just prior to use, an in-house preparation of recombinant human DPP-1 (240 μM stock, MW 49.6 kD) was diluted 600-fold in assay buffer containing fresh 2 mM dithiothreitol (DTT) to activate the enzyme, then diluted into assay buffer (without DTT) 133-fold for a DPP-1 working solution of 3 nM. […]
Additions to a 96-well black Costar 3915 plates were as follows: 90 μL of 11 μM GR-AMC, 5 μL test compound (followed by mixing), and 5 μL 3 nM DPP1 to start the reaction. Fluorescent reactions were monitored kinetically at 360 nm excitation, 440 nm emission on a Molecular Devices Spectramax XPS reader. The Softmax Pro software of the reader determined the initial velocity of the selected data (the first 3-5 minutes of the reaction), and the best linear regression fit of the initial kinetic data. […]

IC50 [µM] | IC50 (tested form: HCl) [µM] | Structure (SMILES)
1.5 |  | N[C@@H](Cc1cccs1)C(=O)N1CCN(c2nc3ccc(-c4cc(Cl)cc(Cl)c4)cc3s2)CC1
 | 1.1 | COCCCNC(=O)c1ccc2nc(N3CCN(C(=O)[C@@H](N)Cc4cccs4)CC3)sc2c1
